# Test results taken from PubChem BioAssay AID485314 (National Center for Advancing Translational Sciences (NCATS), 2010).
# This is a selection; strong and weak results do not stand in their true shares. Records with an inconclusive call do not appear. Active and inactive are the calls of the source. Calls come from the whole dose curve; as a rule, active = well fitted inhibition curve with a large enough effect; inconclusive = small, poorly fitted or top-dose-only effect, or another doubt; inactive = no such curve, though single readings can be large or run the other way.
# Target: DNA polymerase beta (Homo sapiens) (UniProt P06746)
# Test: qHTS Assay for Inhibitors of DNA Polymerase Beta
# Conditions: Pol beta primer extension/strand displacement, fluorescence kinetic
# Description: The base excision repair system in human cells is a target for therapeutic modulation of the response to irradiation treatment and DNA-damaging drugs. A key enzyme in this system is the bi-functional DNA polymerase known as DNA polymerase Beta (Pol Beta). The following is a homogeneous kinetic assay to study the primer extension and strand-displacement reaction catalyzed by pol beta.
# A stepwise description of the 1536-well assay is shown in next Table. Three microliters of reagents (buffer in column 3 and 4 as negative control and 10 nM Pol beta in columns 1, 2, and 5-48) was dispensed into 1,536-well black solid-bottomed plate. Compounds (23 nL) were transferred via Kalypsys pin tool equipped with 1536-pin array (10 nL slotted pins, V&P Scientific, San Diego, CA). The plates were incubated for 15 min at room temperature, and 1 uL substrate (50 nM final concentration) were added to start the reaction and immediately read at 0 min read on Viewlux reader. The plate were further incubated for 10 min at room temperature, and then read on Viewlux again. Throughout the screen, reagent bottle and all liquid lines were chilled and made light-tight to minimize reagent degradation. All screening operations were performed on a fully integrated robotic system (Kalypsys, San Diego, CA) containing one RX-130 and two RX-90 anthropomorphic robotic arms (Staubli, Duncan, SC). […]
# Potency is the fitted concentration of half-maximal effect.
row,Compound,Potency
1,N=C(N)c1ccc(OCCCCCOc2ccc(C(=N)N)cc2)cc1 (tested in a mixture with another compound),active: 4470 nM
2,N=C(N)c1ccc(OCCCCCOc2ccc(C(=N)N)cc2)cc1,active: 1120 nM
